Reference: US6056966A, “Method and compositions for treating impotence” (Baker Norton Pharmaceuticals, Inc., priority 1998, dated 2000)

Legend:
guinea pig penis = test: Topical application of nitrates to the penis of guinea pigs (change in penile volume); format: in vivo, male outbred Hartley guinea pigs; details: neat; for AUC / Peak Effect (% change): guinea pig penile volume; for AUC, % of 1,5-PDN / Peak Effect, % of 1,5-PDN: relative to 1,5-PDN
Excerpt: Sixteen (16) male outbred Hartley guinea pigs were weighed and placed into treatment groups as follows:
The animals were placed in dorsal recumbency and held in place by restraints. The penis was extruded from the prepuce. Care was taken to not manipulate the penis. Length and diameter measurements were made using digital calipers. The length measurement was taken from the prepuce to the tip of the glans when the penis was extended. The diameter was taken 0.5 cm proximally from the tip of the glans.
The appropriate amount of test material was applied with a Wiretrol™ pipette to the base of the exposed penis. When application was complete, a timer was started. Measurements were taken at 0, 1, 2, 5, 10 and 15 minutes after application or until detumescence was observed.
The same procedure was followed to topically apply a series of various other nitrate and dinitrate compounds (in neat form) to the penis of guinea pigs. A summary of the activity of this series of nitrate compounds is shown in Table 2, with the AUC and peak effect values for each compound compared to 1,5-PDN.
The same test procedure was followed as in Example 3, but applying a 10% solution of NTG to the penis in varying dosage amounts.
Twelve (12) male Hartley guinea pigs were placed into treatment groups as follows: […]

rat aortic rings = test: Vascular reactivity: relaxation of rat aortic rings precontracted with phenylephrine; format: cell-based, Sprague-Dawley rats; details: FIG. 10, rat aortic rings
Excerpt: Aortic rings (2-3 mm wide) from Sprague-Dawley rats were isolated and placed in a tissue bath. The vessels were precontracted with small amounts of phenylephrine. A transducer connected to a recorder was used to assess changes in tension. As noted in FIG. 10, there was no difference in vascular relaxation, either in potency or efficacy, between 1,5-PDN and 1,5-pentane dinitrite.
In a similar experiment, there was no appreciable difference in the vascular relaxation induced by NTG and 1,5-PDN (FIG. 11).

penis = details: topical; cited from earlier work

## 1-Pentane nitrate
Guinea pig penis
  Time of Peak Effect: 2 min
  AUC: 234
  Peak Effect (% change): 25.9 % change
  AUC, % of 1,5-PDN: 53%
  Peak Effect, % of 1,5-PDN: 67%

## O=NOCCCCCON=O
Rat aortic rings
  vascular relaxation, potency or efficacy: 1,5-PDN vs 1,5-pentane dinitrite: no difference in vascular relaxation, either in potency or efficacy
penis
  induction of erection: effective in inducing erection
  side effects: almost devoid of undesirable side effects caused by systemic vasodilation

## 2-Methyl-1-propene-3-nitrate
Guinea pig penis
  Time of Peak Effect: 5 min
  AUC: 265
  Peak Effect (% change): 28.6 % change
  AUC, % of 1,5-PDN: 60%
  Peak Effect, % of 1,5-PDN: 74%

## O=[N+]([O-])OCCCCCCO[N+](=O)[O-]
Guinea pig penis
  Time of Peak Effect: 5 min
  AUC: 349
  Peak Effect (% change): 31.8 % change
  AUC, % of 1,5-PDN: 79%
  Peak Effect, % of 1,5-PDN: 82%

## CC(C)(C)CO[N+](=O)[O-]
Guinea pig penis
  Time of Peak Effect: 2 min
  AUC: 376
  Peak Effect (% change): 45.2 % change
